According to PubChem BioAssay AID1224905 (ICCB-Longwood Screening Facility, Harvard Medical School, 2016):
Screen size: about 210,000 compounds; about 880 (0.42%) were called active.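 How the source made its calls: active means replicate mean at 85% of control or lower with very high polarization wells dropped (limit read from the data); inactive means the rest.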 This excerpt belongs to a sample that is enriched for actives.

Sequences of proteins named here, by UniProt entry; tags and fusion partners are left off.
UniProt P08753, whole entry, looked up: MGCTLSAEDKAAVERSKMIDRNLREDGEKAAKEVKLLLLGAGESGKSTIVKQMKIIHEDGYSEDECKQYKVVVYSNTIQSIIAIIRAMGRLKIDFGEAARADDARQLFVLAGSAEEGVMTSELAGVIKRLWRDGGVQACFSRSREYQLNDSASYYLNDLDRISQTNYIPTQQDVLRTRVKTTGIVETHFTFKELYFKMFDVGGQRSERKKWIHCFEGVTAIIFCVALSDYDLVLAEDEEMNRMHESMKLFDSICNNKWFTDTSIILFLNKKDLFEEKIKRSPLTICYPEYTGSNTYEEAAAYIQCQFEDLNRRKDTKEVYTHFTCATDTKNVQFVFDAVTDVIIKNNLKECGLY

Target: Guanine nucleotide-binding protein G(i) subunit alpha-3 (Rattus norvegicus) (UniProt P08753)
Assay: disruptors of GIV-Galphai3 protein-protein interaction – biochemical, fluorescence polarization, FITC-GIV GBA peptide, rat Galphai3, primary screen (AID 1224905)
Details: Galpha-i3/FITC-GIV peptide fluorescence polarization, 90 min; stronger effect = lower value; scaled: aluminum fluoride 0%, vehicle 100%

Percent of control (FP), active:
CN(C)/C=C/c1nc(C(F)(F)F)c(C#N)s1 20.7%, CC(=O)Oc1cccc2c1C(=O)C=CC2=O 77.8%, CCC(=O)N1CCc2cc(N3CC(C(=O)N4CCN(C(C)C)CC4)CC3=O)ccc21 (stereo not given) 72.7%, Cc1cc2c3c(ccc(N)c3n1)C(=O)c1ccccc1-2 -32.2%, O=C(NN=c1c(=O)c2ccccc2c1=O)c1ccncc1 76.9%, N#CC(C#N)=C(C#N)/C=C/n1c2ccccc2c2ccccc21 69.8%, COc1cccc(C2=N/C(=C\c3ccccc3OC)C(=O)N2c2cccc(F)c2)c1 62.3%, Cn1cccc1/C=C1\C(=O)NC(=S)N(c2ccccc2)C1=O 80.1%, CSc1ccc(C2C=C(c3cccs3)Nc3ncnn32)cc1 (stereo not given) -22.3%, CSc1ccc(C2C=C(c3ccc(Cl)s3)Nc3ncnn32)cc1 (stereo not given) -22.3%

Percent of control (FP), inactive:
O=C(Nc1ccc(-c2nc3ccccc3o2)cc1)C1COc2ccccc2O1 (stereo not given) 140%, Cc1nc2ccc(S(=O)(=O)NCC(=O)Nc3nccs3)cc2s1 103%, O=C(CSc1ncnc2ccccc12)Nc1nc2ccccc2s1 102%, CCS(=O)(=O)N1CCC2(CC1)Nc1ccc(Cl)cc1-n1cccc12 105%, CC(C)c1cc(C2CCCN2Cc2ccc(Br)cc2)no1 (stereo not given) 102%, CC(=O)Oc1ccccc1C(=O)N1CCN(c2ccccc2F)CC1 101%, CC(=O)Oc1ccc(OC(C)=O)c2c1C1C=CC2CC1 101%, CCc1cc(C2CCCN2C(=O)NCC2CCCO2)on1 (stereo not given) 106%, O=C(NCc1ccccc1Cl)c1ccc2nc(N3CCOCC3)sc2c1 104%, CCOC(=O)C1(C)/C(=N\Nc2ccc(Br)cc2)C(=O)C(=O)N1c1ccccc1 (stereo not given) 101%, CCC(NC(=O)C1CC(=O)N(c2ccc3c(c2)CCN3C(C)=O)C1)c1cccs1 (stereo not given) 102%, CC(=O)N1CCc2cc(N3CC(C(=O)N4CCC5(CC4)OCCO5)CC3=O)ccc21 (stereo not given) 107%, CCSCCOC(=O)C1=C(C)NC2=C(C(=O)CC(c3ccccc3)C2)C1c1ccc(OC)cc1OC (stereo not given) 105%, Cc1cc(Nc2cccc(C(F)(F)F)c2)nc2ccc(NC(=O)CSc3ccncc3)cc12 102%, COc1ccc(N=C2NC(=O)/C(=C\c3ccc(OCC(C)C)cc3)S2)cc1 107%, Cc1cc2c(cc3n2CC(C)(C(=O)NC2CCCCC2)N(Cc2ccc(F)cc2)C3=O)o1 (stereo not given) 102%, Nc1nnc2c(n1)-c1ccccc1C2=O 100%, CCn1c(C)nc2c1C(=O)c1ccccc1C2=O 102%, S=C(Cc1ccc(CC(=S)N2CCOCC2)cc1)N1CCOCC1 105%, O=C(Nc1ccc(O)c(-c2nc3ccccc3s2)c1)c1cccc(N2C(=O)CCC2=O)c1 104%, CC1CCN(C(=O)CSc2nnc3c(n2)[nH]c2ccccc23)C(C)C1 (stereo not given) 108%, O=C1/C(=C/c2ccc(-c3cc(Cl)ccc3Cl)o2)C=C(c2ccccc2)N1c1ccc(F)cc1 112%, CCOc1ccc(NC(=O)c2cn(C)c3c(c(C)nn3-c3ccc(F)cc3)c2=O)cc1 101%, CC(=O)Nn1nc2c(n1)C(=NNC(=O)c1ccccc1)c1nn(NC(C)=O)nc1C2=NNC(=O)c1ccccc1 99.9%, CC(C)/C=N/NC(=O)c1ccccc1 101%, O=C(Nc1c(F)cc(F)cc1Br)c1cc(S(=O)(=O)N2CCN(c3ccccc3)CC2)ccc1F 106%, Cc1ccc(S(=O)(=O)N2CSC[C@@H]2C(=O)NCc2csc(C)n2)cc1 105%, O=C(NCc1ccccn1)c1cc(-c2ccccc2O)no1 97.4%, CCn1c(=O)c(=O)n(CC(=O)NCCC2=CCCCC2)c2cccnc21 101%, Cn1c(=O)c(C#N)c(O)c2ccccc21 103%, COc1ccc(Cl)cc1C(=O)Nc1cccc(-c2nc3cccnc3s2)c1 108%, COC(=O)C1C(=O)NC(SCC(=O)Nc2ccccc2C)=C(C#N)C1c1ccc(Cl)cc1Cl (stereo not given) 104%, COc1cc(/C=C2/N=C(c3ccccc3)N(C)C2=O)cc(OC)c1OC 106%, COc1cccc(C2=N/C(=C\c3ccccc3OC)C(=O)N2c2ccc(C)cc2)c1 94%, COc1ccc(NC(=O)C2CCCN(c3nc4ncccc4n4cccc34)C2)cc1 (stereo not given) 128%, CC1CCN(C(=O)Cn2nc(Cc3ccncc3)c3ccccc3c2=O)CC1 101%, O=C1NC(=S)N(c2ccc(Br)cc2)C(=O)/C1=C/c1ccsc1 94.1%, O=C1NC(=O)N(c2ccccc2)C(=O)C1=Cc1c2ccccc2cc2ccccc12 101%, Cc1ccc2c(c1)N(C(=O)CSc1nc3ccccc3o1)C(C)(C)c1ssc(=S)c1-2 101%, COc1ccc(CNC(=O)c2cnc(N(C)C)nc2C)cc1 99%, CCc1nn(CC(=O)NCc2ccc(OC)c(OC)c2)c(=O)c2cc3occc3n12 103%, O=C(NCCCN1CCOCC1)C1CCN(c2cncnc2N2CCCCC2)CC1 113%, CC1=C(C(=O)Nc2ccccc2Cl)C(c2cccs2)n2ncnc2N1 (stereo not given) 98%, CC1=C(C(N)=O)C(c2ccc(Br)cc2)n2ncnc2N1 (stereo not given) 111%, COc1cccc(C2=CC(c3cccc(OC)c3)n3ncnc3N2)c1 (stereo not given) 96%, Cc1ccc(-n2nc3c(c2NC(=O)c2ccc(S(=O)(=O)N4CCCC4)cc2)CSC3)c(C)c1 102%, O=C(c1cc2c(s1)-c1ccsc1CC2)N1CCN(c2ccccn2)CC1 109%, COc1ccc2oc(-c3noc(-c4ccnn4C)n3)c(C)c2c1 106%, Cc1cc(C)n(CC(=O)NC2CCCC2)c(=O)c1S(=O)(=O)c1ccc(Cl)cc1 104%, CCN1CCN(C(=O)c2sc3nc(C)nc(N4CCN(c5ccccn5)CC4)c3c2C)CC1 104%
